BindingDB's records for PubMed 10565829 (Loughborough University, 1999)

By UniProt entry, the sequences of proteins in these tests, tags left out.
UniProt P79291, whole entry: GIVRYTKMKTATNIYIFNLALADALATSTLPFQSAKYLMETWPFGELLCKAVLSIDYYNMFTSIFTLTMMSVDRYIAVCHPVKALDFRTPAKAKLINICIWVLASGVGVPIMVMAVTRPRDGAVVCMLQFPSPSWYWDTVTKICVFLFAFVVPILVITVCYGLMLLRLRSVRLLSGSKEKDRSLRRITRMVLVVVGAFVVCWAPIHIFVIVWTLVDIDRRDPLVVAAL

Biological target: Delta-type opioid receptor (Sus scrofa, UniProt P79291)

In the case of `CO[C@@]12CC[C@@]3(C[C@@H]1[C@@](C)(O)C(C)(C)C)[C@H]1Cc4ccc(O)c5c4[C@@]3(CCN1CC1CC1)[C@H]2O5` [BUPRENORPHINE], the Ki is reported as 1.3 nM.
